AlphaSeq binding of Ab-14 heavy chain variants to a spike HR2 peptide

Data: MIT Lincoln Laboratory AlphaSeq set, Engelhart et al. 2022, doi:10.1038/s41597-022-01779-4, as distributed in FLAb.

Binding partner: SARS-CoV-2 spike HR2 peptide, sequence PDVDLGDISGINAS.

The variants keep the light chain, the linker and the frameworks of Ab-14 (scFv order VH, the linker GGGGSGGGGSGGGGS, VL).
VH: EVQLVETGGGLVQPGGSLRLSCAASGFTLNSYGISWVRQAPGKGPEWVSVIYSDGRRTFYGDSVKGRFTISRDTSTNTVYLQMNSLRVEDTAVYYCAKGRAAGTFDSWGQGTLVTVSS
VL: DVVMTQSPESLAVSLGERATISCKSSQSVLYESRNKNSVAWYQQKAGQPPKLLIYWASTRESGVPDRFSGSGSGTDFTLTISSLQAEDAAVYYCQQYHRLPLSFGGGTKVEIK

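Phage display of a naive human antibody library on the peptide gave the parent. AAYL49 was designed without a model: most single CDR substitutions and a random sample of double and triple ones. The scFvs were displayed on barcoded MATa yeast, the peptide on MATalpha yeast. Pairs that bind mate more often; barcode pairs of the diploids are counted by sequencing. Scores were corrected for input abundance and mapped to Kd with protein pairs of known affinity run in the same pool. The assay was run in three technical replicates.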

Each variant is given by its three heavy chain CDRs, as the data file delimits them; those of the parent are GFTLNSYGIS, VIYSDGRRTFYGDSVK, GRAAGTFDS. Values are log10 of the apparent Kd in nM; lower means stronger binding. Replicates are averaged; those with no signal do not enter the mean. Where no diploid with the target was found in that replicate, the entry reads "n.d.": below detection, most likely a poor binder, though not proof of it. Background: pairings of library AAYL49 with three empty control strains gave a value in 15% of cases (median 4.06, 5th percentile 2.83). Values in that range, when seen in few replicates, are hard to tell from nonspecific mating. The control count says in how many pairings with the empty strains this scFv gave a signal, with their mean in brackets.

{"CDR-H1": "GFTLNSPGIS", "CDR-H2": "VIWSDGRRTFYGHSVK", "CDR-H3": "GRAAGTFDS", "log10 Kd, replicates": "n.d. n.d. n.d.", "mean log10 Kd (nM)": "n.d.", "empty controls": "0/9"}
{"CDR-H1": "GFTLNSYGIS", "CDR-H2": "VYGSDGRRTFYGDSVK", "CDR-H3": "GRAAGTVDS", "log10 Kd, replicates": "n.d. n.d. 3.15", "mean log10 Kd (nM)": "3.15", "empty controls": "0/9"}
{"CDR-H1": "GFTLNSYGRS", "CDR-H2": "VIYSCGRRTTYGDSVK", "CDR-H3": "GRAAGTFDS", "log10 Kd, replicates": "4.97 n.d. 4.34", "mean log10 Kd (nM)": "4.66", "empty controls": "1/9 (4.56)"}
{"CDR-H1": "GFLLKSYGIS", "CDR-H2": "VIYSDGRRTFYNDSVK", "CDR-H3": "GRAAGTFDS", "log10 Kd, replicates": "2.52 3.33 3.15", "mean log10 Kd (nM)": "3.00", "empty controls": "0/9"}
{"CDR-H1": "CFTLNSYGIS", "CDR-H2": "VIYSDGRRVFYGDSVK", "CDR-H3": "GRAAGTMDS", "log10 Kd, replicates": "n.d. n.d. 3.60", "mean log10 Kd (nM)": "3.60", "empty controls": "2/9 (3.90)"}
{"CDR-H1": "GFTLNSYGIS", "CDR-H2": "VIYRDGRRTKYGDSMK", "CDR-H3": "GRAAGTFDS", "log10 Kd, replicates": "5.51 3.50 n.d.", "mean log10 Kd (nM)": "4.50", "empty controls": "5/9 (3.91)"}
{"CDR-H1": "GFTLNSSGIS", "CDR-H2": "VIYSDGRRTFYGDPVK", "CDR-H3": "GRAAGTFDS", "log10 Kd, replicates": "n.d. n.d. n.d.", "mean log10 Kd (nM)": "n.d.", "empty controls": "4/9 (4.30)"}
{"CDR-H1": "GFTLNSYGIS", "CDR-H2": "VIYSSGRRTFYGDKVK", "CDR-H3": "GRAAGTFDS", "log10 Kd, replicates": "3.87 5.11 3.41", "mean log10 Kd (nM)": "4.13", "empty controls": "3/9 (3.83)"}
{"CDR-H1": "GFTLNSYGID", "CDR-H2": "VIYSDGRRTFYGDSVG", "CDR-H3": "GRAAGCFDS", "log10 Kd, replicates": "n.d. n.d. n.d.", "mean log10 Kd (nM)": "n.d.", "empty controls": "1/9 (5.03)"}
{"CDR-H1": "GFTLNSYGIS", "CDR-H2": "VIYSDMRRTFYGDSVK", "CDR-H3": "GRAAGYFDS", "log10 Kd, replicates": "n.d. n.d. n.d.", "mean log10 Kd (nM)": "n.d.", "empty controls": "0/9"}
{"CDR-H1": "GFTLNSYGIS", "CDR-H2": "VIYSDGRRVFPGDSVK", "CDR-H3": "GRAAGTFDS", "log10 Kd, replicates": "n.d. n.d. n.d.", "mean log10 Kd (nM)": "n.d.", "empty controls": "0/9"}
{"CDR-H1": "GGTLNSYGIS", "CDR-H2": "VIYSDGRRTFYEDSVK", "CDR-H3": "GRAAGTFDR", "log10 Kd, replicates": "3.25 2.91 3.01", "mean log10 Kd (nM)": "3.06", "empty controls": "0/9"}
{"CDR-H1": "GFVLNSYGIS", "CDR-H2": "VIYSDKTRTFYGDSVK", "CDR-H3": "GRAAGTFDS", "log10 Kd, replicates": "n.d. n.d. n.d.", "mean log10 Kd (nM)": "n.d.", "empty controls": "0/9"}
{"CDR-H1": "GFTLNSYSIS", "CDR-H2": "VIYEDGRRTFYPDSVK", "CDR-H3": "GRAAGTFDS", "log10 Kd, replicates": "n.d. n.d. n.d.", "mean log10 Kd (nM)": "n.d.", "empty controls": "2/9 (3.81)"}
{"CDR-H1": "GFSLNSYYIS", "CDR-H2": "VIYSDGRRTFYGDSVK", "CDR-H3": "GRASGTFDS", "log10 Kd, replicates": "n.d. n.d. n.d.", "mean log10 Kd (nM)": "n.d.", "empty controls": "1/9 (2.76)"}
{"CDR-H1": "GFTLNSYGAS", "CDR-H2": "VIYSDGRRTFYGDSVK", "CDR-H3": "GRKAGHFDS", "log10 Kd, replicates": "n.d. n.d. n.d.", "mean log10 Kd (nM)": "n.d.", "empty controls": "2/9 (3.02)"}
{"CDR-H1": "GFTLNSYGIS", "CDR-H2": "VIYSDGRRTFYIDIAK", "CDR-H3": "GRAAGTFDS", "log10 Kd, replicates": "n.d. n.d. n.d.", "mean log10 Kd (nM)": "n.d.", "empty controls": "0/9"}
{"CDR-H1": "GFTLNSYGIS", "CDR-H2": "VIYSDPRRHFYGDSVK", "CDR-H3": "GRAAGTFDS", "log10 Kd, replicates": "n.d. n.d. n.d.", "mean log10 Kd (nM)": "n.d.", "empty controls": "0/9"}

From the list, the first 2 with no signal in any replicate:

{"CDR-H1": "GFTLNSPGIS", "CDR-H2": "VIWSDGRRTFYGHSVK", "CDR-H3": "GRAAGTFDS", "log10 Kd, replicates": "n.d. n.d. n.d.", "mean log10 Kd (nM)": "n.d.", "empty controls": "0/9"}
{"CDR-H1": "GFTLNSSGIS", "CDR-H2": "VIYSDGRRTFYGDPVK", "CDR-H3": "GRAAGTFDS", "log10 Kd, replicates": "n.d. n.d. n.d.", "mean log10 Kd (nM)": "n.d.", "empty controls": "4/9 (4.30)"}

In this assay the parent's reference entry averaged 0.65; its copy inside this library read 4.11 (one replicate of three).